# PubChem BioAssay AID624287 (National Center for Advancing Translational Sciences (NCATS), 2012)
# Only a part is listed here, and it is no random draw. Results filed as inconclusive are left out. Calls of active or inactive are those of the source. The call rests on the fitted dose curve; in most records, active means well fitted activation curve with a large enough effect; inconclusive means small, poorly fitted or top-dose-only effect, or another doubt; inactive means no such curve, though single readings can be large or run the other way; cell line not stated here.
# Assay: qHTS for Agonist of gsp, the Etiologic Mutation Responsible for Fibrous Dysplasia/McCune-Albright Syndrome: qHTS;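 further: phosphodiesterase inhibitor Ro 20-1724 added with compounds to block cAMP breakdown; nearly all actives have a fitted effect of over 60% in size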
# Settings: gsp mutant cells, cAMP HTRF, 30 min; at 76.9 µM (top of the series) unless noted
row,SMILES,activation (cAMP increase)
1,O=P1(N(CCCl)CCCl)OCCCN1CCCl (configuration not stated),inactive: -2.67%
2,O=P1(N(CCCl)CCCl)Nc2ccccc2N1,inactive: -32.9%
3,Cc1ccc(NP(C)(=O)Oc2ccccc2)c(C)c1 (configuration not stated),inactive: 25.8%
4,COC(=O)C1(C)COP(=O)(N2CCCCCC2)OC1 (configuration not stated),inactive: -42.7%
5,COc1ccccc1OP(C)(=O)Nc1ccc(C)cc1 (configuration not stated),inactive: -30.9%
6,ClCCSc1nnc(-c2cccnc2)o1,inactive: -2.27%
7,CCOC(=O)c1ccc(NP(C)(=O)Oc2ccccc2)cc1 (configuration not stated),inactive: -0.57%
8,Cc1cc(C)cc(OP(C)(N)=O)c1 (configuration not stated),inactive: 0.96% [at 15.4 µM]
9,O=[N+]([O-])c1cc([N+](=O)[O-])c(-c2ccn[nH]2)s1,inactive: -1.91%
10,COc1ccc(OP(C)(=O)Nc2cccc(F)c2)cc1 (configuration not stated),inactive: -23.5%
11,CCN(CC)C(=S)SC(NC=O)C(Cl)(Cl)Cl (configuration not stated),inactive: -2.37%
12,O=C(OC1CN2CCC1CC2)c1cccc2[nH]cnc12 (configuration not stated),inactive: 15.3% [at 15.4 µM]
13,CC(C)NC(=O)NP(=O)(Oc1ccccc1)Oc1ccccc1,inactive: -2.42% [at 15.4 µM]
14,COc1ccccc1OP(C)(=O)Nc1cc(Cl)ccc1C (configuration not stated),inactive: -32.4% [at 15.4 µM]
15,COc1cc(C(=O)NCC2(N3CCOCC3)CCCCC2)ccc1OCC(C)C,inactive: 0.561%
16,O=[N+]([O-])c1ccc(-c2cc([N+](=O)[O-])c(O)c([N+](=O)[O-])c2)cc1,inactive: 6.57% [at 15.4 µM]
17,O=[As](O)(c1ccc(O)cc1)c1ccccc1O,inactive: 0.0291% [at 15.4 µM]
18,C[As](=O)(O)c1cccc(C(=O)O)c1,inactive: 16.8%
19,Cc1ccc2nc3c(c(C)c2c1)CC(C(Cl)Cl)S3 (configuration not stated),inactive: -4.2% [at 15.4 µM]
20,O=[N+]([O-])c1ccc2c(c1)C=Nc1ccccc1O2,inactive: 10.6%
21,Cc1cccc(C)c1OP(C)(N)=O (configuration not stated),inactive: 0.475% [at 15.4 µM]
22,CC(C)(C)c1ccc(OP(C)(=O)Nc2ccc(SC(F)(F)F)cc2)cc1 (configuration not stated),inactive: -16.7%
23,Cc1ccc(OP(=O)(Nc2ccc([N+](=O)[O-])cn2)Oc2ccc(C)cc2)cc1,inactive: -20.7%
24,CCOC(=O)Nc1cccc([As](=O)(O)O)c1,inactive: -14.5%
25,CP(=S)(Nn1cnnc1)Oc1ccccc1 (configuration not stated),inactive: -5.12%
26,O=[N+]([O-])c1ccc(Nc2ccc(Oc3ccc([N+](=O)[O-])cc3[N+](=O)[O-])cc2)c([N+](=O)[O-])c1,inactive: 29.5%
27,CP(=O)(Nc1ccccc1Br)Oc1ccccc1 (configuration not stated),inactive: -3.64% [at 15.4 µM]
